In the assay the target is Cytochrome P450 1A2 (Homo sapiens, UniProt P05177). In words: Inhibition of CYP1A2 (unknown origin). The format is ADME.

Sequences of proteins named here, by UniProt entry; tags and fusion partners are left off.
UniProt P05177, whole entry: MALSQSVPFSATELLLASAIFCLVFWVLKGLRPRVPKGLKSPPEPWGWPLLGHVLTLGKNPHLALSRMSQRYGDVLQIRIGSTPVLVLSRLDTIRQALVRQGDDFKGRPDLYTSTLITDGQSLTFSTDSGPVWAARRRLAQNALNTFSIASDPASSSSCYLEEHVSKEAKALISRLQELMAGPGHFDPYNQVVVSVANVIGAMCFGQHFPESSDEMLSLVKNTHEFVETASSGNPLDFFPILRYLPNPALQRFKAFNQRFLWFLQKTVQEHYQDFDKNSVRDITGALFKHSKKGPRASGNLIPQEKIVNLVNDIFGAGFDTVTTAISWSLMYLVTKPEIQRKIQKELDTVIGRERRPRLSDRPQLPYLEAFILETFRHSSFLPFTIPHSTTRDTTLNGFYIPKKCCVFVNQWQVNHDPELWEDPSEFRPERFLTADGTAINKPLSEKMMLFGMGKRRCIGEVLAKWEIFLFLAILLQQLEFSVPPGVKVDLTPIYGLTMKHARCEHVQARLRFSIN

Some results are limits rather than exact numbers.

Regarding `c1ccc(-c2cccc3nc(-c4cccnc4)nc(NCc4ccccn4)c23)cc1`, the IC50 (usually the point on the concentration scale where inhibition reaches its midpoint) was less than 10 µM.

The values are drawn from ChEMBL document CHEMBL4014310, “Selective IKur Inhibitors for the Potential Treatment of Atrial Fibrillation: Optimization of the Phenyl Quinazoline Series Leading to Clinical Candidate 5-[5-Phenyl-4-(pyridin-2-ylmethylamino)quinazolin-2-yl]pyridine-3-sulfonamide” (J Med Chem, 2017).
